Data reported in patent US10792371B2, “c-Met targeting compound-bioactive material conjugate and use thereof” (Samsung Electronics Co., Ltd., priority 2013, dated 2020).

Tested on: OE33 (esophageal cancer cell line overexpressing c-Met and HER2)
Experiment: Internalization of fluorescently labeled antibody, confocal microscopy
Format: cell-based
Conditions: 1 ug/ml labeled antibody, 0, 10, 30 or 60 min, confocal microscope (FIG. 1)
Experimental: The cell line OE33 (esophageal cancer cell line, ECACC (European Collection of Cell Cultures), #96070808), which overexpresses both c-Met and HER2, was incubated for 0, 10, 30 or 60 min with 1 ug/ml of the anti-c-Met antibody L3-1Y/IgG2, or Herceptin (Roche) to which an equal amount of the fluorescent FNR675 (BioActs, # PWS1515) was previously labeled, and then observed under a confocal microscope (FIG. 1A). Separately, OE33 cells were incubated in the presence of both FITC-labeled anti-c-Met antibody L3-1Y/IgG2 and FNR675-labeled Herceptin, each 1 ug/ml, followed by confocal microscopy to compare internalization into the same cells therebetween (FIG. 1B).

In the case of “Herceptin: anti-HER2 antibody Herceptin (Roche) [reference compound]”, the internalization into cells is reported as “not to enter the cells, but to remain on cell surfaces”.
